# From patent US20210260101A1, “POTENTIATED ANTIBIOTIC COMPOSITIONS AND METHODS OF USE FOR TREATING BACTERIAL INFECTIONS AND BIOFILMS” (priority 2018, published 2021)
# System: primary human renal proximal tubule epithelial cells (hRPTECs)
# Experiment: In vitro nephrotoxicity assay (LDH release)
substance,measurement,setting,value
colistin,release of LDH,"at 62 μg/mL, hRPTECs",26%
same,nephrotoxicity (LDH assay),at 63 μg/mL,> 20%
